PubChem BioAssay (NCI)
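Where inhibition never reached the appropriate level, the endpoint shown equals the highest concentration tested. Otherwise, values were interpolated linearly from a five-concentration, 48-hour dose response in 96-well plates. The concentration for full growth arrest is given as TGI.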

Experiments:
Assay in all cases: DTP human tumour cell line panel, 48 h
[1] = system: 786-0 renal
[2] = system: A498 renal
[3] = system: A549 NSCLC
[4] = system: ACHN renal
[5] = system: BT-549 breast
[6] = system: CAKI-1 renal
[7] = system: CCRF-CEM leukemia
[8] = system: COLO 205 colon
[9] = system: DU-145 prostate
[10] = system: EKVX NSCLC
[11] = system: HCC-2998 colon
[12] = system: HCT-116 colon
[13] = system: HCT-15 colon
[14] = system: HL-60(TB) leukemia
[15] = system: HOP-62 NSCLC
[16] = system: HOP-92 NSCLC
[17] = system: HS 578T breast
[18] = system: HT29 colon
[19] = system: IGROV1 ovarian
[20] = system: K-562 leukemia
[21] = system: KM12 colon
[22] = system: LOX IMVI melanoma
[23] = system: M14 melanoma
[24] = system: MALME-3M melanoma
[25] = system: MCF7 breast
[26] = system: MDA-MB-231 breast
[27] = system: MDA-MB-435
[28] = system: MDA-N
[29] = system: MOLT-4 leukemia
[30] = system: NCI-H226 lung
[31] = system: NCI-H23 lung
[32] = system: NCI-H322M lung
[33] = system: NCI-H460 lung
[34] = system: NCI-H522 lung
[35] = system: NCI/ADR-RES ovarian
[36] = system: OVCAR-3 ovarian
[37] = system: OVCAR-4 ovarian
[38] = system: OVCAR-5 ovarian
[39] = system: OVCAR-8 ovarian
[40] = system: PC-3 prostate
[41] = system: RXF 393 renal
[42] = system: SF-268 CNS
[43] = system: SF-295 CNS
[44] = system: SK-MEL-2 melanoma
[45] = system: SK-MEL-28 melanoma
[46] = system: SK-MEL-5 melanoma
[47] = system: SK-OV-3 ovarian
[48] = system: SN12C renal
[49] = system: SNB-19 CNS
[50] = system: SW-620 colon
[51] = system: T-47D breast
[52] = system: TK-10 renal
[53] = system: U251 CNS
[54] = system: UACC-257 melanoma
[55] = system: UACC-62 melanoma
[56] = system: UO-31 renal

CN(C)CCn1c(Cn2nnc3ccccc32)nc2cc(C(F)(F)F)ccc21
TGI [1]: > 100 µM | TGI [2]: 58.4 µM | TGI [3]: > 100 µM | TGI [4]: > 100 µM | TGI [5]: > 100 µM | TGI [6]: > 100 µM | TGI [7]: 58.3 µM | TGI [8]: 43.1 µM | TGI [9]: > 100 µM | TGI [10]: > 100 µM | TGI [11]: 32.7 µM | TGI [12]: > 100 µM | TGI [13]: > 100 µM | TGI [14]: 50.1 µM | TGI [15]: > 100 µM | TGI [16]: > 100 µM | TGI [17]: > 100 µM | TGI [18]: > 100 µM | TGI [19]: > 100 µM | TGI [20]: 92.5 µM | TGI [21]: > 100 µM | TGI [22]: > 100 µM | TGI [23]: 36.1 µM | TGI [24]: 37.6 µM | TGI [25]: > 100 µM | TGI [26]: > 100 µM | TGI [27]: > 100 µM | TGI [28]: > 100 µM | TGI [29]: 65.9 µM | TGI [30]: > 100 µM | TGI [31]: > 100 µM | TGI [32]: > 100 µM | TGI [33]: > 100 µM | TGI [34]: > 100 µM | TGI [35]: > 100 µM | TGI [36]: > 100 µM | TGI [37]: > 100 µM | TGI [38]: > 100 µM | TGI [39]: > 100 µM | TGI [40]: > 100 µM | TGI [41]: > 100 µM | TGI [42]: > 100 µM | TGI [43]: > 100 µM | TGI [44]: > 100 µM | TGI [45]: > 100 µM | TGI [46]: > 100 µM | TGI [47]: > 100 µM | TGI [48]: > 100 µM | TGI [49]: > 100 µM | TGI [50]: > 100 µM | TGI [51]: > 100 µM | TGI [52]: > 100 µM | TGI [53]: > 100 µM | TGI [54]: > 100 µM | TGI [55]: > 100 µM | TGI [56]: > 100 µM
